Source: patent US6300353A, “Azoles for treatment of fungal infections” (Basilea Pharmaceutica AG, a Swiss Company, priority 1998, dated 2001)

Sequences of proteins named here, by UniProt entry; tags and fusion partners are left off.
UniProt P11712, whole entry: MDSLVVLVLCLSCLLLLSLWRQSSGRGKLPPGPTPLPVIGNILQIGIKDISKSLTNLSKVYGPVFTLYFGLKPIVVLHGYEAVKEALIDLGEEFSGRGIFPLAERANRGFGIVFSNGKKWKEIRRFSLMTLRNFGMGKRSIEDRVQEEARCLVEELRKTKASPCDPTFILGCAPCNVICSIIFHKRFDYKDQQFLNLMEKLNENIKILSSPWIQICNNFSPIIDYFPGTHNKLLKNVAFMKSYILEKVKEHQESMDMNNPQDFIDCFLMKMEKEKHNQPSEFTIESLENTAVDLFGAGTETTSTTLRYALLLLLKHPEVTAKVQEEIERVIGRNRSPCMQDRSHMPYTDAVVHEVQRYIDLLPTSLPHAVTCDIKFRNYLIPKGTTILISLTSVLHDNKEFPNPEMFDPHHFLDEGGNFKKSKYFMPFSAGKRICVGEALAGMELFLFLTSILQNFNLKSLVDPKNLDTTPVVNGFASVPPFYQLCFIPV

Molecular target: CYP2C9 (Homo sapiens, UniProt P11712)
Test: In vitro P450 inhibitory activity (CYP2C9, tolbutamide 4-hydroxylation), human liver microsomes

OC(Cn1cncn1)(Cn1cncn1)c1ccc(F)cc1F [Fluconazole, reference compound]
IC50: > 50 µM
